Measurements published in patent publication EP0339681B1, “Antitumor antibiotic substance” (MEIJI SEIKA KAISHA LTD., priority 1988, dated 1989).

System: P-388 mouse leukemia cells
Assay: Cytotoxic effect: 50% growth inhibition of P-388 cells
Details: 37°C, 72 hours, 5% CO₂

Question: With SF2582C sulfate [Compound 4] as the substance, how does the IC₅₀ read?
Answer: 1000 ng/mL
